Assay results published in publication PMC2798171.

Target: Plasmodium berghei macrophage migration inhibitory factor with C-terminal His6-tag (Plasmodium berghei)
Assay: crystal structure

Plasmodium berghei macrophage migration inhibitory factor with C-terminal His6-tag (natural protein)
stoichiometry N: 3
